## Measured affinities in a library of Ab-14 light chain variants

Data: MIT Lincoln Laboratory AlphaSeq set, Li et al. 2023, doi:10.1038/s41467-023-39022-2, as distributed in FLAb.

The target is the same throughout: PDVDLGDISGINAS, from the HR2 region of SARS-CoV-2 spike.

Ab-14 is the parent antibody, in scFv form: VH, then three GGGGS repeats, then VL. The heavy chain is unchanged in all variants.
VH: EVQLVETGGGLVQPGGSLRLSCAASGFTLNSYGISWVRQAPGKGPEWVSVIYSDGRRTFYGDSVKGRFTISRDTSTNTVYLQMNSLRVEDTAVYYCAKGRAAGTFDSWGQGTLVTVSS
VL: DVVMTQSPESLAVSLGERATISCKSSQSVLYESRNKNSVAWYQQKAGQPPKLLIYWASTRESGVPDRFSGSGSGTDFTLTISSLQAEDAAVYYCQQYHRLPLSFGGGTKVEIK

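The parent was found by panning a naive human phage display library on the peptide. This is the validation round: designs drawn from the data on random variants, tested in the same kind of assay. Several design methods are mixed in this list. The scFvs were displayed on barcoded MATa yeast, the peptide on MATalpha yeast. Mating (16 h, 30 °C) was followed by selection of diploids and sequencing of their barcodes. Each replicate has its own calibration line, from reference interactions of the BCL2 family. Each pool was mated in six replicate cultures.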

Each variant is given by its three light chain CDRs, as the data file delimits them; those of the parent are KSSQSVLYESRNKNSVA, WASTRES, QQYHRLPLS. Numbers give log10(Kd / nM), so 0 is 1 nM and 3 is 1 µM. Smaller is tighter. Replicates are averaged; those with no signal do not enter the mean. A pair that was not seen in that replicate is written "nd"; this usually means weak binding, but a binder can also be missed. As a blank, each scFv also met three strains without target: over all light chain designs, 4% of these pairings were detected, typically at 2.64 and seldom below 1.59. Also given: how often the same scFv was detected with the empty control strains, with their mean in brackets. The authors' rule: three or more of the six replicates give a measured affinity, fewer mean a poor binder. Of ten entries with the parent sequence, four were seen in most replicates (averages 0.34 to 2.37), three in one and three in none, so single entries are noisy. The range of this assay differs from that of the first round, and the authors advise against merging the two.

| CDR-L1 | CDR-L2 | CDR-L3 | replicates, log10 nM | mean, log10 nM | signal with controls |
|---|---|---|---|---|---|
| KLDQKNRWNGMANYNVA | DSNHRVD | QQYHRLPLI | 0.88 0.94 1.05 0.56 0.63 0.96 | 0.84 | 1/18 (3.00) |
| KISMSMLLESFHKNSVA | ENSTREE | QHYHRLPLS | nd nd nd nd nd nd | nd | 0/18 |
| TISQMFLGESRIRNSVA | QASTRES | QSYDRLPLS | 0.42 0.09 0.22 0.07 -0.10 0.20 | 0.15 | 0/18 |
| KSSQSVLYEERNKNNVA | WASTRES | QQYHRLPLS | 1.06 0.39 0.88 0.83 0.70 1.14 | 0.83 | 0/18 |
| LLPQSMEYESRNKNSVA | AASTRES | QQYHRLPLS | -0.07 0.10 0.04 -0.12 0.13 0.28 | 0.06 | 0/18 |
| KVGQGVLYESRNWNSVA | GASTRES | QQYHRLPLS | 0.30 0.20 -0.01 0.10 0.17 0.14 | 0.15 | 1/18 (1.94) |
| KSIQSGLYESDNKNSVA | WASTRES | QQYMRLPTS | nd nd nd nd nd nd | nd | 2/18 (1.85) |
| KIGLTLNTLMHQKNNVA | DLVEREN | QQYYRLPLS | 1.19 0.99 0.66 0.65 0.86 1.44 | 0.96 | 1/18 (4.57) |
| KLQQWDLYESRMKNSVA | HASERES | QCYHRLPLS | 1.18 1.28 1.12 1.07 0.91 1.11 | 1.11 | 2/18 (2.61) |
| AISFEMESPHNHSNNVA | SESKRCS | QQYFTLPLS | nd nd 1.69 1.81 nd 2.01 | 1.84 | 2/18 (2.16) |
| KSSQSVEYESRNKNHVA | WASTRES | QQVHRLPDS | nd 1.84 3.99 nd 2.70 nd | 2.84 | 1/18 (1.80) |
| KISQSVLYESSNENSVA | WASTRES | QQYHRLPLS | 0.71 1.27 2.20 2.57 1.09 1.38 | 1.54 | 0/18 |
| KSSQSVLDESRNKNSVA | WASTRES | QRYHRLPLS | nd nd nd nd nd 2.97 | 2.97 | 0/18 |
| KSLWSVLYESRNKNSVA | HASTRED | QQLHRLTLS | 0.09 0.36 0.27 0.22 -0.26 1.05 | 0.29 | 0/18 |
| KLMQSNLYESRNKNSVA | NASTRES | QQYHRLPLS | 0.09 -0.10 -0.13 -0.15 -0.08 -0.13 | -0.08 | 1/18 (2.15) |
| IVSQLMIWGMHLKNSIA | EAETRIN | QQYDRLPLF | nd nd nd nd nd nd | nd | 0/18 |
| RIMGQLNVEGKNRNAVA | SGKEQVI | QHYARLPLS | 2.13 3.49 nd nd 1.84 nd | 2.48 | 0/18 |
| KFSDSVLLESRQKNSVA | NASTRES | QQYHRLPLS | -0.01 0.83 0.14 0.03 -0.35 0.56 | 0.20 | 0/18 |
| LIKGMVEGQYYWQNAIA | NSEERDR | QQYNHLPLS | 0.74 1.27 0.54 1.37 1.06 1.46 | 1.07 | 1/18 (2.12) |
| TLYGLSNSMSINKNSVA | EMTTREE | QQYDRLPLI | 2.24 2.12 2.32 1.41 1.48 2.39 | 1.99 | 2/18 (2.34) |
| NVSIKEPGNWRMMDSVA | HSSLRAE | QQYWRLPLM | 0.43 0.29 0.23 0.22 0.13 0.29 | 0.27 | 0/18 |
| KIGSGTNGEKFASNSVA | QTSTREE | QQYHRLPLS | nd nd nd nd nd 1.84 | 1.84 | 0/18 |
| KLQQAELGESRNKNSVA | SADTRES | QQYHRLPLS | nd nd nd nd nd nd | nd | 0/18 |
| KSSQSVLYEWRNKNSVA | QSSTRET | QQYHRLPTS | nd nd nd nd nd nd | nd | 1/18 (2.42) |
| KSSQSVLYESTGKNSVA | WASTRES | QQYHRLPLS | 2.34 0.60 0.76 0.46 0.65 0.77 | 0.93 | 1/18 (1.05) |
| KISQSVLYESRNKNSVA | EASTRES | QQYHRLPLS | 0.27 0.14 -0.13 -0.12 -0.07 0.16 | 0.04 | 1/18 (1.58) |
| KITLIFSNKGNQRHSVA | NAETLIH | QQYYRLPFL | nd nd nd nd nd nd | nd | 0/18 |
| KVSQSVLYESRNKNSVA | DASTRES | QDYHRLPLS | -0.31 -0.32 -0.37 -0.45 -0.41 -0.23 | -0.35 | 2/18 (3.95) |
| KLSQSKLYESRNKNNVA | NASQRES | QQYHRLPLS | -0.35 -0.62 -0.62 -0.51 -0.74 -0.40 | -0.54 | 2/18 (2.54) |
| KLQQSMLYESRWHNSVA | DASVRCD | QQYHRLPLS | 0.30 0.05 0.20 -0.04 0.09 0.41 | 0.17 | 2/18 (2.58) |
| TIGQSVHETSRMKNSVA | HASTRED | QQYDRLPLS | 1.89 1.94 0.95 1.03 1.50 2.28 | 1.60 | 2/18 (1.88) |

3 of these entries, quoted again:

| CDR-L1 | CDR-L2 | CDR-L3 | replicates, log10 nM | mean, log10 nM | signal with controls |
|---|---|---|---|---|---|
| LLPQSMEYESRNKNSVA | AASTRES | QQYHRLPLS | -0.07 0.10 0.04 -0.12 0.13 0.28 | 0.06 | 0/18 |
| KITLIFSNKGNQRHSVA | NAETLIH | QQYYRLPFL | nd nd nd nd nd nd | nd | 0/18 |
| KLSQSKLYESRNKNNVA | NASQRES | QQYHRLPLS | -0.35 -0.62 -0.62 -0.51 -0.74 -0.40 | -0.54 | 2/18 (2.54) |